SMILES strings stand for the structures. This is a selection; strong and weak results do not stand in their true shares. Activity calls are given as the source filed them.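 Rule for the calls: active = inhibition above a per-plate limit of that plate's mean compound inhibition plus 3 SD (cut at about 60% in these data); inactive = the rest.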

The experiment can be described thus: suppression of KLF5 promoter-driven luciferase – DLD-1 cells, luminescence, primary screen (AID 1700).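 Note: 0% = DMSO wells and 100% = LY294002 at 200 µM; higher means less KLF5 promoter-driven luciferase light.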 The note with it: DLD-1 KLF5 promoter-luciferase reporter, at 5 µM, hits give high values.
As to `Cc1c(NP(C)(=O)Oc2ccc(C(C)C)cc2)c(=O)n(-c2ccccc2)n1C` (stereo unspecified), the inhibition was inactive: -27.4%.

The record behind these values is PubChem BioAssay AID1700 (The Scripps Research Institute Molecular Screening Center, 2009).
